# Data as given in patent publication US9638690B2, “Compounds and compositions for use as alkylating agent sensors and methods of use thereof” (dated 2017).
# Assay: Assay of cyclophosphamide with NBP and its derivatives (colorimetric, UV/Vis)
# Conditions: dye formed with cyclophosphamide; for ε, molar absorptivity of the dye resulting from reaction with CP: NaOAc buffer pH 4.5, 100° C. twenty minutes, then 1:1 triethylamine:acetone, blank subtracted; for λanal, analytical wavelength: wavelength of highest intensity in the 400-700 nm range after background corrections
SMILES,"ε, molar absorptivity of the dye resulting from reaction with CP [L M^−1cm^−1]","λanal, analytical wavelength [nm]"
O=[N+]([O-])c1ccc(Cc2ccncc2)cc1,0.55E6,575
O=Cc1cc([N+](=O)[O-])ccc1Cc1ccncc1,0.89E6,587
O=C([O-])c1cc([N+](=O)[O-])ccc1Cc1ccncc1.[K+],2E6,603
O=[N+]([O-])c1ccc(Cc2ccncc2)c(/C=N/Cc2ccccc2)c1,0.77E6,581
O=[N+]([O-])c1ccc(Cc2ccncc2)c(CO)c1,0.46E6,570
